Measurements as given in US10584104B2, “Carboxylic acid URAT1 inhibitor containing diarylmethane structure, preparation method and use thereof” (TIANJIN INSTITUTE OF PHARMACEUTICAL RESEARCH CO., LTD., priority 2015, dated 2020).

Chains of the proteins cited; added tags and fusions are not shown. Lines headed by an entry give the natural chain unless they say otherwise; changes in a name come on top.
UniProt Q96S37: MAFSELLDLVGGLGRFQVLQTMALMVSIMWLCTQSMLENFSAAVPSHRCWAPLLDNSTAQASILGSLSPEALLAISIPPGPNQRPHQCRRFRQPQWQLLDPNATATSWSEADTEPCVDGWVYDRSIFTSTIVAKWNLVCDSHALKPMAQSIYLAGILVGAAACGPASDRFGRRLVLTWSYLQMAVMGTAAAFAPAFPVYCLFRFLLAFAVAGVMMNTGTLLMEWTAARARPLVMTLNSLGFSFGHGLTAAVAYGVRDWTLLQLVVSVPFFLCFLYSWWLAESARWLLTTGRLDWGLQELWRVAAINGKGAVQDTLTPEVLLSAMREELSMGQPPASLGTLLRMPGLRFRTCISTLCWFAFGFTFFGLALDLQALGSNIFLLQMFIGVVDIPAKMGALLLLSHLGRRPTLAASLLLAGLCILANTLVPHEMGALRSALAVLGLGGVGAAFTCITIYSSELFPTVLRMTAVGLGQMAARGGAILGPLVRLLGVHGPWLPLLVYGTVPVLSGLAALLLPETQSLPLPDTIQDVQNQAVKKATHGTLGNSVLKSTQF

Target: URAT1 (Homo sapiens (Human), UniProt Q96S37)
Assay: Inhibition of [8-14C] uric acid uptake by HEK293 cells stably expressing URAT1, test compounds at 10 μM
Assay type: cell-based
Settings: 10 μM test compound, 30 μM [8-14C] uric acid, 2 min, read-out: Inhibition rate (%)
Method: (I) Inhibitory Experiment of the Test Compounds at a Concentration of 10 μM on URAT1 After trypsin digestion, the expression cells (HEK293) stably expressing URAT1 gene and mock cells were all inoculated into lysine-coated 24-well culture plates, with the cell inoculation density being 1×10^5 cells/well, and cultured in incubator at 37° C., 5% CO2 and saturated humidity for 2 days. […] After 2 min, the reaction was terminated with ice-bathed DPBS buffer solution and washing was carried out for three times. […]
wherein, control=the intensity of radioactivity corresponding to the well without the test compound test compound=the intensity of radioactivity corresponding to the well with the test compound mock=the intensity of radioactivity corresponding to the well of blank cells untransfected with URAT1

- inhibition at 10 µM: 44%
SMILES: O=C(O)CSc1nnc(Br)n1-c1ccc(C2CC2)c2ccccc12 [lesinurad, Lesinurad, reference compound]
